Chains of the proteins cited; added tags and fusions are not shown. Residues count along the entry.
UniProt P56817, 75-416: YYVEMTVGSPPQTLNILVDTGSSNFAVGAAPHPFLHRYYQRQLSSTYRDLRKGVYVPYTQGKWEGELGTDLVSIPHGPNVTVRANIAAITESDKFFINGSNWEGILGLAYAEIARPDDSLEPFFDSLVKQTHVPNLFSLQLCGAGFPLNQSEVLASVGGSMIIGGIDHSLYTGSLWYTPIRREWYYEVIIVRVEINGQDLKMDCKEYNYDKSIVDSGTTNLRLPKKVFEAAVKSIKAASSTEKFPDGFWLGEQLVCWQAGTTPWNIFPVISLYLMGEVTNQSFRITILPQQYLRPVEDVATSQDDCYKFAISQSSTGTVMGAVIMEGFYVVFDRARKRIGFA

According to patent US9242973B2, “Chromane compounds” (CoMentis, Inc., priority 2012, dated 2016):

Assays:
[1] = target: BACE1 (Homo sapiens (Human), UniProt P56817); experiment: Test Example 1: BACE1 inhibition by FRET (MCA substrate); IC50 and Ki; conditions: read-out: Test Example 1 IC50, MCA substrate 3 μM, BACE1 65 nM, pH 4.4
[2] = tested on: Aβ production in SK-N-BE(2) neuroblastoma cells; experiment: Test Example 3: Aβ production inhibition in cell (Aβ40 ELISA, SK-N-BE(2)); conditions: Homo sapiens, SKNBE2, 6 h, read-out: Test Example 3 IC50

Compound | IC50 [1] [nM] | IC50 [2] [nM]
NC1=NC2(CO1)c1cc(NC(=O)c3ncc(Cl)cc3F)ccc1OCC21CC1 (centres unmarked) [RP 29] | 276 | 
Cc1cc(Cl)cnc1C(=O)Nc1ccc2c(c1)C1(COC(N)=N1)C1(COC1)C(C)(C)O2 (centres unmarked) [Example 195] |  | 3.2
